This test has as its target Thyroid hormone receptor beta (Homo sapiens) (UniProt P10828). Briefly: qHTS for Inhibitors of the Interaction of Thyroid Hormone Receptor and Steroid Receptor Coregulator 2.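 Note: plate controls were bound peptide for no effect and peptide without receptor for full effect; nearly all actives have a fitted effect of over 50% in size.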 To be noted: TRbeta-SRC2 peptide binding, fluorescence polarization, receptor liganded with 1 µM T3. The text has this:
NIH Molecular Libraries Probe Production Network [MLPCN]
NIH Chemical Genomics Center [NCGC]
Assay Provider: R. Kip Guy, St. Jude Children's Research Hospital
Thyroid receptor (TR) regulates many homeostatic processes including basal metabolism, cardiovascular function, body weight, and lipid trafficking. TR modulators are potential therapeutics for obesity and hyperlipidemias but current thyroid analogs have undesirable side effects, particularly cardiac stimulation. To identify inhibitors that specifically prevent the interaction of TR with the steroid receptor coregulator 2 (SRC2), a fluorescence polarization assay was screened. This assay detects interaction of the ligand-binding domain of human TRb with a Texas Red labeled SRC2 peptide, corresponding to a 20 amino acid region of the nuclear receptor interaction domain (Arnold et al., 2006). Small molecule inhibitors that block the interaction of TR and SRC2 are detected by a decrease in fluorescence polarization.
Arnold, L. A.; Estebanez-Perpina, E.; Togashi, M.; Shelat, A.; Ocasio, C. A.; McReynolds, A. C.; Nguyen, P.; Baxter, J. D.; Fletterick, R. J.; Webb, P.; Guy, R. K. A high-throughput screening method to identify small molecule inhibitors of thyroid hormone receptor coactivator binding. Sci STKE 2006, p 13.
NCGC Assay Protocol Summary:
For screening, 5 uL/well 0.6 uM TRb and 20 nM SRC2 Texas Red in protein buffer (20mM Tris hydrochloride, 100mM NaCl, 10% glycerol, 1mM EDTA, 0.01% NP-40, 1mM DTT, 1uM T3 and 5% DMSO) was dispensed into black solid 1536-well plates (Grenier) using a solenoid-based dispenser. Following transfer of 23 nL compound or DMSO vehicle by a pin tool, the plates were centrifuged 15 s at 1000 RPM and incubated 5 hr at ambient temperature. […] Data were normalized to unbound (all components except TRb) and bound SRC2 Texas Red controls. In this assay, we provide % activity data for each concentration as well as potencies for the active compounds.
Keywords: NIH Roadmap, MLPCN, MLI, MLSMR, qHTS, NCGC, qHTS, thyroid hormone receptor, steroid receptor coactivator, fluorescence polarization
On the technique in general: In qHTS, concentration-response curves come from the screen itself.

Protein sequences, listed by entry. Tags and fused reporters are not part of them.
UniProt P10828, whole entry: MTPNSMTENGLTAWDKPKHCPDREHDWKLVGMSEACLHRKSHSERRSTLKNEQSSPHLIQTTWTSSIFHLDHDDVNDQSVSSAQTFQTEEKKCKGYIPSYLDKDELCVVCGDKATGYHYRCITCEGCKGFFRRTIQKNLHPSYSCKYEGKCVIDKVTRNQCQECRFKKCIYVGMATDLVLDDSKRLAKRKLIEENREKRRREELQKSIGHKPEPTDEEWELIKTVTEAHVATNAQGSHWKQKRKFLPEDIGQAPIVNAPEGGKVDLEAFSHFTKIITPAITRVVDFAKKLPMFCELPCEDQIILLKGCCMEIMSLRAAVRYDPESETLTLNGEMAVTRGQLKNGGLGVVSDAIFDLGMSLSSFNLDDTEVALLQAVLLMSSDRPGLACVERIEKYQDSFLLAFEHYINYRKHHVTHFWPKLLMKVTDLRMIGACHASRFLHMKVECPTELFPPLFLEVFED

[1] abbreviates: at 106 µM (top of the series) unless noted.

The structures appear in SMILES notation. The entries are a selection whose mix differs from that of the whole data set. Some salts and complexes are drawn in separate pieces, as the source files them; their charges need not balance. Activity calls are given as the source filed them. Calls come from the whole dose curve; as a rule, active = well fitted inhibition curve with a large enough effect; inconclusive = small, poorly fitted or top-dose-only effect, or effect the other way; inactive = flat fitted curve, though single readings scatter.

Take `CN(C)c1cccc(C(=O)NCC2(N3CCCCC3)CCCCC2)c1`: under setting [1], the activity change, negative = inhibition was inactive: -3.94%.

Consider `COc1ccc(CN(CCCl)CCCl)cc1Cl`, for which, under setting [1], the activity change, negative = inhibition was inactive: 5.8% [at 53 µM].

Turning to `CC(C)c1ccc(NC2CCN(C(=O)OC(C)(C)C)CC2)cc1`, the activity change, negative = inhibition under setting [1] was inactive: -6.31%.

As to `CCOP(=O)(Cl)Cl`, the activity change, negative = inhibition runs as follows: (at 106 µM (top of the series)) inactive: 1.06%; (at 201 µM (top of the series)) inactive: -2.2%.

As to `COc1ccc2c(c1O)-c1c(O)c(OC)cc3c1[C@H](C2)[N+](C)(C)CC3.O=[N+]([O-])c1cc([N+](=O)[O-])c([O-])c([N+](=O)[O-])c1[O-]`, the activity change, negative = inhibition under setting [1] was inactive: 4.43%.

Take `O=C(OC1CN2CCC1CC2)c1ccc([N+](=O)[O-])cc1` (stereo not given): the activity change, negative = inhibition under setting [1] was inactive: -4.37%.

As for `O=C(NCC1(N2CCOCC2)CCCCC1)c1ccccc1Br`, under setting [1], the activity change, negative = inhibition is inactive: 1.29%.

In the case of `CCCCOc1ccccc1C(=O)NCC1(N2CCOCC2)CCCCC1`, under setting [1], the activity change, negative = inhibition was inactive: -1.24%.

On to `CCOc1ccc(C(=O)NCC2(N3CCOCC3)CCCCC2)cc1`, for which, under setting [1], the activity change, negative = inhibition was inactive: -2.01%.

On to `O=C(NCC1(N2CCCCC2)CCCCC1)c1cccc([N+](=O)[O-])c1`, for which the activity change, negative = inhibition under setting [1] is inactive: 1.79%.

Take `N#CC1(Nc2ccccc2)CCN(CCc2ccccc2)CC1`: the activity change, negative = inhibition under setting [1] was inactive: 9.28%.

`CCCOc1cccc(C(=O)NCC2(N3CCOCC3)CCCCC2)c1`: the activity change, negative = inhibition under setting [1] is inactive: -1.26%.

As to `O=[N+]([O-])c1cc([N+](=O)[O-])c(NCC2CCS(=O)(=O)C2)c([N+](=O)[O-])c1` (stereo not given), the activity change, negative = inhibition under setting [1] is inactive: -6.44%.

As to `COc1ccc(NC2CCN(C(=O)OC(C)(C)C)CC2)cc1`, under setting [1], the activity change, negative = inhibition is inactive: 3.28%.

In the case of `CN1CCN(CCOC(=O)C(O)(c2ccccc2)c2ccccc2)CC1`, the activity change, negative = inhibition under setting [1] is inactive: -8.84%.

For the compound `O=C(NCC1(N2CCOCC2)CCCCC1)c1cc(=O)[nH]c2ccccc12`, under setting [1], the activity change, negative = inhibition is inactive: -25.2%.

Consider `CCOc1ccc(C)cc1CN(CCCl)CCCl`, for which the activity change, negative = inhibition under setting [1] was inactive: -6.22%.

For the compound `O=C(NCC1(N2CCOCC2)CCCCC1)c1ccc(Cl)cc1`, the activity change, negative = inhibition under setting [1] is inactive: -3.56%.

As for `COc1ccc(NC2CCN(CCc3ccccc3)CC2)c(OC)c1`, the activity change, negative = inhibition under setting [1] is inactive: -18.2%.

`O=[N+]([O-])c1ccccc1[N+](=O)[O-]`: under setting [1], the activity change, negative = inhibition was inactive: -1.9% [at 201 µM].

As for `COc1ccccc1C(=O)NCC1(N2CCOCC2)CCCCC1`, under setting [1], the activity change, negative = inhibition was inactive: -10.2%.

Consider `COc1ccc(C(=O)NCC2(N3CCCCC3)CCCCC2)c(OC)c1OC`, for which the activity change, negative = inhibition under setting [1] was inactive: -1.49%.

Regarding `O=C(NCC1(N2CCOCC2)CCCCC1)c1cc2ccccc2o1`, under setting [1], the activity change, negative = inhibition is inactive: -1.31%.

As to `CCOC(=O)N1CCC(Nc2ccc(OC)cc2)CC1`, the activity change, negative = inhibition under setting [1] is inactive: -1.16%.

Turning to `N#CC1(Nc2ccccc2)CCN(Cc2ccccc2)CC1`, the activity change, negative = inhibition under setting [1] was inactive: 2.84%.

In the case of `O=C(OC1CN2CCC1CC2)C1c2ccccc2Oc2ccccc21` (stereo not given), under setting [1], the activity change, negative = inhibition is inactive: -3.82%.

`CCOc1ncccc1C(=O)NCC1(N2CCOCC2)CCCCC1`: under setting [1], the activity change, negative = inhibition was inactive: -0.125%.

With `CC(C)(C)OC(=O)N1CCC(Nc2ccccc2)CC1`, the activity change, negative = inhibition under setting [1] was inactive: 1.62%.

Regarding `CCC(CO)(C(=O)OC1CN2CCC1CC2)c1ccccc1` (stereo not given), the activity change, negative = inhibition under setting [1] was inactive: 5.72%.

With `COc1cc(OC)cc(C(=O)NCC2(N3CCOCC3)CCCCC2)c1`, the activity change, negative = inhibition under setting [1] is inactive: 2.49%.

For `COc1cc(C(=O)NCC2(N3CCOCC3)CCCCC2)cc(OC)c1OC`, under setting [1], the activity change, negative = inhibition is inactive: -6.6%.

Take `CCCOc1ccc(C)cc1CN(CCCl)CCCl`: the activity change, negative = inhibition under setting [1] is inactive: -4.2%.

`CN(C)C1(CNC(=O)c2ccc(C(C)(C)C)cc2)CCCCC1`: under setting [1], the activity change, negative = inhibition was inactive: -1.16%.

Take `Fc1ccccc1NC1CCN(Cc2ccccc2)CC1`: the activity change, negative = inhibition under setting [1] is inactive: -1.82%.

As to `CCN1CCC(Nc2cccc(F)c2)CC1`, the activity change, negative = inhibition under setting [1] was inactive: -2.61%.

Regarding `CN(C)c1ccc(C(=O)NCC2(N3CCCCC3)CCCCC2)cc1`, under setting [1], the activity change, negative = inhibition is inactive: 3.57%.

As for `CC(C)(C)c1ccc(C(=O)NCC2(N3CCOCC3)CCCCC2)cc1`, the activity change, negative = inhibition under setting [1] is inactive: -9.31%.

With `Cc1ccccc1C(=O)NCC1(N(C)C)CCCCC1`, the activity change, negative = inhibition under setting [1] was inactive: -2.09%.

On to `O=C(NCC1(N2CCOCC2)CCCCC1)c1ccc([N+](=O)[O-])cc1`, for which the activity change, negative = inhibition under setting [1] is inactive: -1.13%.

Take `O=C(NCC1(N2CCOCC2)CCCCC1)c1ccccc1[N+](=O)[O-]`: under setting [1], the activity change, negative = inhibition is inactive: -7.28%.

For `N#Cc1ccc(C(=O)NCC2(N3CCCCC3)CCCCC2)cc1`, the activity change, negative = inhibition under setting [1] was inactive: 1.24%.

Regarding `CCOC(=O)C(CC)C1=NC(C)(C)Cc2ccccc21.O=[N+]([O-])c1cc([N+](=O)[O-])c(O)c([N+](=O)[O-])c1` (stereo not given), the activity change, negative = inhibition under setting [1] was inactive: 2.96%.

With `O=C(NCC1(N2CCOCC2)CCCCC1)c1ccccc1`, under setting [1], the activity change, negative = inhibition is inactive: -7.64%.

Turning to `c1ccc(CN2CCC(Nc3ccccc3)CC2)cc1`, the activity change, negative = inhibition under setting [1] was inactive: 0.408%.

For `ClCCOP(OCCCl)OCCCl`, under setting [1], the activity change, negative = inhibition is inactive: 1.32%.

With `COc1ccc(C(=O)NCC2(N3CCOCC3)CCCCC2)cc1OC`, under setting [1], the activity change, negative = inhibition is inactive: -3.83%.

In the case of `N/C(=N\O)c1c(N)no[n+]1[O-]`, the activity change, negative = inhibition under setting [1] was inactive: -0.939%.

In the case of `O=C(O)c1cccc(Nc2c([N+](=O)[O-])cc([N+](=O)[O-])cc2[N+](=O)[O-])c1`, the activity change, negative = inhibition under setting [1] was inactive: 6.21%.

As to `O=C(OC1CN2CCC1CC2)C1c2ccccc2C=Cc2ccccc21` (stereo not given), the activity change, negative = inhibition under setting [1] was inactive: 1.3%.

Values taken from PubChem BioAssay AID1469 (National Center for Advancing Translational Sciences (NCATS), 2008).
